Values of other authors in US8644910B2, “Imaging protocols” (Biosensors International Group, Ltd., priority 2005, dated 2014).

Conditions: general somatic scan according to prior art

Question: With 2-[F-18]fluoro-2-deoxy-D-glucose as the substance, how does the typical whole-body dose read?
Answer: 700 mrem
